pKi: −log10 of the molar value.
These molecules were tested against MC4 (Homo sapiens, UniProt P32245). Conditions: read-out: MC4 Ki.

Sequences of proteins named here, by UniProt entry; tags and fusion partners are left off.
UniProt P32245, whole entry: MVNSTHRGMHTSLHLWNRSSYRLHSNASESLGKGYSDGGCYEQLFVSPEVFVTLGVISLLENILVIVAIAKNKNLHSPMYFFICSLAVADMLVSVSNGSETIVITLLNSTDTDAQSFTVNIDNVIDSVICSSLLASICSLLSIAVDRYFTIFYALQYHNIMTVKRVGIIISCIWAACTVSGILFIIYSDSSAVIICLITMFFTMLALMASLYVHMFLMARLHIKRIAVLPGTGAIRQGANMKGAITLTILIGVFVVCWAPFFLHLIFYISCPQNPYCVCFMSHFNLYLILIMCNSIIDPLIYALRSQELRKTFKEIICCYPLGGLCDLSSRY

Question: `N=C(N)NCCC[C@@H]1NC(=O)[C@@H](Cc2ccccc2)NC(=O)[C@H](Cc2c[nH]cn2)NC(=O)[C@@H](NC(=O)CNS(=O)(=O)c2ccccc2)CCSSC[C@@H](C(N)=O)NC(=O)[C@H](Cc2c[nH]c3ccccc23)NC1=O` [Compound No. 161, phenylsulfonyl-Gly-cyclo[hCys-His-D-Phe-Arg-Trp-Cys]-NH2] was tested. Which pKi did it give?
Answer: 10.10

Question: How did the pKi turn out when `N=C(N)NCCC[C@H](NC(=O)[C@@H](N)Cc1ccc(O)cc1)C(=O)N[C@H]1CCSSC[C@@H](C(N)=O)NC(=O)[C@H](Cc2c[nH]c3ccccc23)NC(=O)[C@H](CCCNC(=N)N)NC(=O)[C@@H](Cc2ccccc2)NC(=O)[C@H](Cc2c[nH]cn2)NC1=O` [Compound No. 162, Tyr-Arg-cyclo[hCys-His-D-Phe-Arg-Trp-Cys]-NH2] was run?
Answer: 10.10

Question: With `N=C(N)NCCC[C@H](NC(=O)[C@@H](N)Cc1ccc(O)cc1)C(=O)N[C@H]1CCSSC[C@@H](C(=O)O)NC(=O)[C@H](Cc2c[nH]c3ccccc23)NC(=O)[C@H](CCCNC(=N)N)NC(=O)[C@@H](Cc2ccccc2)NC(=O)[C@H](Cc2c[nH]cn2)NC1=O` [Compound No. 163, Tyr-Arg-cyclo[hCys-His-D-Phe-Arg-Trp-Cys]-OH] as the molecule, how does the pKi read?
Answer: 8.64

Question: `CC(=O)N[C@@H](Cc1ccc(O)cc1)C(=O)N[C@@H](CCCNC(=N)N)C(=O)N[C@H]1CCSSC[C@@H](C(N)=O)NC(=O)[C@H](Cc2c[nH]c3ccccc23)NC(=O)[C@H](CCCNC(=N)N)NC(=O)[C@@H](Cc2ccccc2)NC(=O)[C@H](Cc2c[nH]cn2)NC1=O` [Compound No. 164, Ac-Tyr-Arg-cyclo[hCys-His-D-Phe-Arg-Trp-Cys]-NH2] was tested. Which pKi did it give?
Answer: 9.42

Question: `CC(=O)N[C@@H](Cc1ccc(O)cc1)C(=O)N[C@@H](CCCNC(=N)N)C(=O)N[C@H]1CCSSC[C@@H](C(=O)O)NC(=O)[C@H](Cc2c[nH]c3ccccc23)NC(=O)[C@H](CCCNC(=N)N)NC(=O)[C@@H](Cc2ccccc2)NC(=O)[C@H](Cc2c[nH]cn2)NC1=O` [Compound No. 165, Ac-Tyr-Arg-cyclo[hCys-His-D-Phe-Arg-Trp-Cys]-OH] was tested. Which pKi did it give?
Answer: 8.84

Question: With `CC(=O)N[C@@H](Cc1ccc(O)cc1)C(=O)N[C@@H](CCCNC(=N)N)C(=O)N[C@H]1CCSSC[C@@H](C(N)=O)NC(=O)[C@H](Cc2c[nH]c3ccccc23)NC(=O)[C@H](CCCNC(=N)N)NC(=O)[C@@H](Cc2ccccc2)NC(=O)[C@H](Cc2c[nH]cn2)NC(=O)[C@H](CCC(=O)O)NC1=O` [Compound No. 166, Ac-Tyr-Arg-cyclo[hCys-Glu-His-D-Phe-Arg-Trp-Cys]-NH2] as the molecule, how does the pKi read?
Answer: 7.60

Question: With `CC(=O)N[C@H]1CCSSC[C@@H](C(N)=O)NC(=O)[C@H](Cc2c[nH]c3ccccc23)NC(=O)[C@H](CCCNC(=N)N)NC(=O)[C@@H](CC2CCCCC2)NC(=O)[C@H](Cc2c[nH]cn2)NC1=O` [Compound No. 167, Ac-cyclo[hCys-His-(β-cyclohexyl-D-Ala)-Arg-Trp-Cys]-NH2] as the molecule, how does the pKi read?
Answer: 7.03

Question: How did the pKi turn out when `CC(=O)N[C@H]1CCSSC(C)(C)[C@@H](C(N)=O)NC(=O)[C@H](Cc2c[nH]c3ccccc23)NC(=O)[C@H](CCCNC(=N)N)NC(=O)[C@@H](Cc2ccccc2)NC(=O)[C@H](Cc2c[nH]cn2)NC1=O` [Compound No. 168, Ac-cyclo[hCys-His-D-Phe-Arg-Trp-penicillamine]-NH2] was run?
Answer: 8.87

Question: How did the pKi turn out when `CC(=O)N[C@H]1CCSSC(C)(C)[C@@H](C(N)=O)NC(=O)[C@H](Cc2c[nH]c3ccccc23)NC(=O)[C@H](CCCNC(=N)N)NC(=O)[C@@H](Cc2ccc(Cl)cc2)NC(=O)[C@H](Cc2c[nH]cn2)NC1=O` [Compound No. 169, Ac-cyclo[hCys-His-(4-Cl-D-Phe)-Arg-Trp-penicillamine]-NH2] was run?
Answer: 10.52

Question: With `CC1(C)SSCC[C@H](NC(=O)C2CCCC2)C(=O)N[C@@H](Cc2c[nH]cn2)C(=O)N[C@H](Cc2ccccc2)C(=O)N[C@@H](CCCNC(=N)N)C(=O)N[C@@H](Cc2c[nH]c3ccccc23)C(=O)N[C@@H]1C(N)=O` [Compound No. 171, N-cyclopentanecarbonyl-cyclo[hCys-His-D-Phe-Arg-Trp-penicillamine]-NH2] as the molecule, how does the pKi read?
Answer: 10.00
